## Binding of CDR-mutated scFvs to a peptide of the spike HR2 region

Target peptide (SARS-CoV-2 spike, HR2 region): PDVDLGDISGINAS

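Phage display of a naive human antibody library on the peptide gave the parent. These sequences belong to a second round, designed from the earlier measurements on random variants of the parent. Their group label is 14L_Ctrl (Ctrl: baseline library sampled from a position-specific scoring matrix, with some repeated check sequences). AlphaSeq pools MATa yeast showing the antibodies with MATalpha yeast showing the peptide. Binding brings cells together so that they mate, and sequencing counts the barcode pairs among the diploids. Scores were corrected for input abundance and mapped to Kd with protein pairs of known affinity run in the same pool. There are six technical replicates.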

Parent: Ab-14, a human scFv built as VH, the linker GGGGSGGGGSGGGGS, VL. Only the CDRs of the light chain vary.
VH: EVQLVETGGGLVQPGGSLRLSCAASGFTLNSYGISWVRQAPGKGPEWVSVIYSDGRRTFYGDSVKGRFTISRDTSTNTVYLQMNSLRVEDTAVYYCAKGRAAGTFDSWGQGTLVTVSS
VL: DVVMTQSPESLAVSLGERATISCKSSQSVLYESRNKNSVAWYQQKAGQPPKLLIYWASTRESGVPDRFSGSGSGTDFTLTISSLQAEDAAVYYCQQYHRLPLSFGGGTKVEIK

Positions count from residue 1 of the parent VL; S25M puts M in place of S.
Values are log10 of the apparent Kd in nM; lower means stronger binding.
"ND" marks a missing value. The strain was present, yet no cells mated with the target were sequenced in that replicate, which points to weak or no binding.
The authors' rule: three or more of the six replicates give a measured affinity, fewer mean a poor binder.
A sequence that the file lists under several names has all its replicates listed entry by entry, parted by semicolons.
Values of this round are not directly comparable with the first-round values of the same sequences.
Background: pairings of all light chain designs with three empty control strains gave a value in 4% of cases (median 2.64, 5th percentile 1.59). Values in that range, when seen in few replicates, are hard to tell from nonspecific mating. The control count says in how many pairings with the empty strains this scFv gave a signal, with their mean in brackets.

| changes | replicates, log10 nM | signal with controls |
|---|---|---|
| S25M S26Q V29G L30S S103P | 1.71 / 0.84 / 0.68 / 0.80 / 0.73 / 0.69 | 1 of 18 (3.47) |
| H98K R99E | 1.20 / 2.00 / ND / ND / ND / 1.83 | 0 of 18 |
| S25F Q27I N35G Q96I R99I L102H | ND / ND / ND / ND / ND / ND | 0 of 18 |
| R34Y S38P W56Q | 0.87 / 1.07 / 0.34 / 0.91 / 0.54 / 0.74 | 0 of 18 |
| V29D L30G Y31A S103A | 1.34 / 1.04 / 0.80 / 1.54 / 1.30 / 0.89 | 0 of 18 |
| S26L R34F | ND / 2.50 / 1.95 / ND / ND / 2.23 | 1 of 18 (1.51) |
| S25I Q27G S28P L30Q A57G T59I S62K R99S | 0.92 / 0.70 / 0.62 / 0.68 / 0.58 / 0.77 | 1 of 18 (3.01) |
| Q27S S33T W56K Q96E | 1.99 / 1.99 / 1.66 / 1.69 / 1.57 / 1.86 | 1 of 18 (3.73) |
| Q27W T59N | ND / ND / ND / ND / ND / ND | 0 of 18 |
| K24S S25N R34Q H98C L100N | ND / ND / ND / ND / ND / ND | 0 of 18 |
| S26I L30I N35M S62A | ND / ND / ND / ND / ND / ND | 0 of 18 |
| V29G Y31N S38N W56G | -0.08 / -0.16 / -0.29 / -0.44 / -0.42 / -0.10 | 0 of 18 |
| K24Q S26E E32P K36E W56N | 0.59 / 0.21 / 0.21 / 0.31 / 0.40 / 0.50 | 4 of 18 (2.47) |
| L30V E32D S58T | 2.42 / 1.33 / 1.68 / 1.21 / 1.26 / 1.68 | 1 of 18 (3.12) |
| Y31Q K36T | ND / 1.70 / 2.89 / 2.33 / 1.91 / 2.57 | 0 of 18 |
| Q27P V29T W56D H98M | -0.14 / -0.24 / -0.41 / -0.26 / -0.43 / -0.23 | 0 of 18 |
| S33N N35K K36E | ND / 1.58 / ND / 2.97 / 1.93 / ND | 1 of 18 (2.62) |
| L30T Y31F | 1.02 / 1.10 / ND / ND / 2.62 / 1.55 | 0 of 18 |
| S25F E61N | 0.67 / ND / ND / 1.13 / 1.44 / 1.63 | 0 of 18 |
| W56K L100I | ND / 3.31 / 2.49 / 3.34 / 2.76 / 2.60 | 1 of 18 (1.85) |
| R34D W56N S58V T59F L100H | 1.59 / 1.53 / 1.91 / 4.94 / 1.99 / 2.20 | 2 of 18 (2.78) |
| V29A Y31P S33G Q96I S103E | 1.25 / ND / ND / ND / 3.18 / 3.31 | 1 of 18 (2.04) |
| V29D K36S W56H | 0.55 / 0.19 / 0.20 / 0.10 / 0.19 / 0.06 | 0 of 18 |
| S26A T59H Q96V | ND / ND / ND / ND / ND / ND | 0 of 18 |
| K24Q Y31K | 1.21 / 1.15 / 0.70 / 1.31 / 1.62 / 0.96 | 0 of 18 |
| V29Q W56K H98D R99S | 1.47 / 1.14 / 1.11 / 0.97 / 0.70 / 0.93 | 0 of 18 |
| Y31D | 0.90 / 1.34 / 1.02 / 0.91 / 1.18 / 1.68 | 0 of 18 |
| S25L R34N S103D | ND / ND / ND / ND / 1.75 / 1.72 | 0 of 18 |
| S25L L30Y V39I | 1.29 / 0.93 / 0.95 / 1.12 / 1.70 / 1.42 | 1 of 18 (1.86) |
| V29F W56A | 0.25 / 0.17 / 0.11 / -0.16 / -0.02 / 0.18 | 1 of 18 (4.25) |
| T59W S62F | ND / 1.80 / ND / ND / ND / ND | 0 of 18 |
| R34K T59E | 1.12 / 1.19 / ND / 2.39 / ND / ND | 0 of 18 |
| Y31G K36C W56E | 0.16 / 0.09 / 0.37 / -0.02 / -0.04 / 0.07 | 0 of 18 |
| Q27K R34D H98F | 1.93 / 1.87 / 1.72 / 1.66 / 2.01 / 2.00 | 2 of 18 (2.39) |
| N35L S38P | ND / ND / ND / ND / 1.95 / ND | 1 of 18 (2.54) |
| Q27D V29K R34L W56Q S103Y | 0.95 / 0.65 / 0.06 / 0.28 / 0.36 / 0.61; 0.91 / 0.63 / 0.57 / 0.27 / 0.55 / 0.72; 0.56 / 0.35 / 0.37 / 0.11 / 0.38 / 0.36; 0.21 / 0.35 / 0.55 / 0.00 / 0.06 / 0.33; 0.75 / 0.47 / 0.40 / 0.90 / 0.87 / 0.85 | 6 of 90 (2.63) |

Picked from the list: the 5 lowest averages where every replicate gave a value.

{"changes": "Q27P V29T W56D H98M", "replicates, log10 nM": "-0.14 / -0.24 / -0.41 / -0.26 / -0.43 / -0.23", "signal with controls": "0 of 18"}
{"changes": "V29G Y31N S38N W56G", "replicates, log10 nM": "-0.08 / -0.16 / -0.29 / -0.44 / -0.42 / -0.10", "signal with controls": "0 of 18"}
{"changes": "V29F W56A", "replicates, log10 nM": "0.25 / 0.17 / 0.11 / -0.16 / -0.02 / 0.18", "signal with controls": "1 of 18 (4.25)"}
{"changes": "Y31G K36C W56E", "replicates, log10 nM": "0.16 / 0.09 / 0.37 / -0.02 / -0.04 / 0.07", "signal with controls": "0 of 18"}
{"changes": "V29D K36S W56H", "replicates, log10 nM": "0.55 / 0.19 / 0.20 / 0.10 / 0.19 / 0.06", "signal with controls": "0 of 18"}

Source: Li et al. 2023 (doi:10.1038/s41467-023-39022-2), MIT Lincoln Laboratory and A-Alpha Bio; data file from the FLAb repository.